The values that follow are results of earlier work, collected in patent US20110038855A1, “TRAIL AND METHODS OF MODULATING T CELL ACTIVITY AND ADAPTIVE IMMUNE RESPONSES USING TRAIL” (priority 2005, published 2011).

This data set concerns helpless CD8+ T cells. To be noted: cytokine provided during secondary antigenic encounter; Janssen et al., Nature 421:852 (2003); cited from earlier work.

For IL-2, the “re-expansion of helpless CD8+ T cells upon restimulation” value is “can permit their re-expansion”.
